Reference: patent US20210070687A1, “MOLECULAR WEIGHT CONTROLLING AGENT FOR RADICAL POLYMERIZATION, METHOD FOR PRODUCING POLYMER USING SAME, AND POLYMER” (SDP Global Co., Ltd., priority 2017, published 2021)
Only a part of the results on these compounds is given; other tests are left out.

Assay: Solubility in water at 20° C. of the iodine compounds
Conditions: % means % by weight

For `N#CC(I)c1ccccc1` (stereo not shown), the “Solubility in water (20° C.)” value was less than 0.1%.
